Measured values from PMC11014987, “A hemoprotein with a zinc-mirror heme site ties heme availability to carbon metabolism in cyanobacteria” (Nature Communications, 2024).

Chains of the proteins cited; added tags and fusions are not shown. Residues count along the entry.
UniProt P73129, 1-96: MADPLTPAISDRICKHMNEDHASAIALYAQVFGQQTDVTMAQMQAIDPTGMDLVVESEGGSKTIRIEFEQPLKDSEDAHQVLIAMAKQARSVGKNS

Molecular target: T1, Dri1 (Synechocystis sp. PCC 6803, UniProt P73129)
T1 construct: gene ssr1698
Test: UV-Vis heme titration (Soret), MCR-ALS and nonlinear fit
Format: binding

Kd: 0.15 µM
Compound: C=CC1=C(C)C2=Cc3c(C=C)c(C)c4[n]3[Fe]([Cl])[n]3c(c(C)c(CCC(=O)O)c3=CC3=NC(=C4)C(C)=C3CCC(=O)O)=CC1=N2 [hemin]
